Measured values taken from patent publication US10119168B2, “Methods for the treatment of kidney fibrosis” (priority 2014, dated 2018).

Tested on: mouse liver
Details: in vivo
Excerpt: Fibrosis is a universal pathological finding for chronic diseases in any organ(14) and it would be useful to identify biomarkers of fibrosis that are specific for an organ or be able to indicate their origin.
Animals were housed in an Association for Assessment and Accreditation of Laboratory Animal Care International-accredited facility at Michigan State University and all procedures were approved by the Michigan State University Institutional Animal Care and Use Committee.
Formalin fixed, paraffin embedded kidney sections were Masson Trichrome's stained and evaluated by a renal pathologist under a light microscope in blinded fashion relative to sample group. Percent area of fibrosis relative to the total section area was evaluated. […]
Total RNA was extracted from frozen kidney tissue using TRIzol reagent (Invitrogen). Following RNA concentration measurement by NanoDrop spectrophotometer (Thermo Fischer Scientific), 1 μg RNA was used for cDNA preparation using QuantiTect Reverse Transcription Kit from Qiagen (Valencia, Calif.). qRT-PCR using QuantiFast SYBR Green PCR Kit (Qiagen) was performed in 384-well plates on an Applied Biosystems 7900HT Fast Real-Time PCR System instrument with the following temperature profile: 3 min enzyme activation at 95° C. followed by 40 cycles of 95° C. for 10 s, and 55° C. for 30 s. […]

S=C=Nc1cccc2ccccc12 [ANIT, α-naphthylisothiocyanate]
peribiliary fibrosis (Picrosirius red staining): significantly increased peribiliary fibrosis
